## scFv variants of Ab-14 (light chain) against a SARS-CoV-2 spike peptide

Reference: Li et al. 2023, doi:10.1038/s41467-023-39022-2. File: FLAb, binding data.

Binding partner: SARS-CoV-2 spike HR2 peptide, sequence PDVDLGDISGINAS.

Parent scFv Ab-14: VH joined to VL by a (GGGGS)3 linker. Changes lie in the light chain CDRs alone.
VH: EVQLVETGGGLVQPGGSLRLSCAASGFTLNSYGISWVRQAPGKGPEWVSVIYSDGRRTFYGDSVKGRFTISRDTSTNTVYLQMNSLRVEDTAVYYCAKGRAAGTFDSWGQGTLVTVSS
VL: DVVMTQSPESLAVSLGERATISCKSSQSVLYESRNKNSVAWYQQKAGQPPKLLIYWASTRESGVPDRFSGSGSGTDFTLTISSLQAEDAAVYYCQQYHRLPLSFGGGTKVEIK

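The starting antibody came from a phage panning campaign against this peptide. The variants were designed computationally from a first round of random CDR variants and then made and measured. Several design methods are mixed in this list. AlphaSeq pools MATa yeast showing the antibodies with MATalpha yeast showing the peptide. Binding brings cells together so that they mate, and sequencing counts the barcode pairs among the diploids. Read counts were normalised to the haploid input and turned into Kd by a linear fit to BCL2-family pairs of known affinity, for each replicate. Mating was done six times.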

Variants are written as CDR1, CDR2 and CDR3 of the light chain (limits as in the source). Parent: KSSQSVLYESRNKNSVA, WASTRES, QQYHRLPLS. Variants here have more than six changes. Each Kd is an estimate from the mating assay, the geometric mean of the replicates in which the pair was seen; lower is stronger. "no signal" marks a missing value. The strain was present, yet no cells mated with the target were sequenced in any replicate, which points to weak or no binding. The authors' rule: three or more of the six replicates give a measured affinity, fewer mean a poor binder. Nonspecific signal, from three strains lacking the peptide, appeared in 4% of pairings of all light chain designs, centred on 430 nM (5% of these signals below 38 nM); values are not corrected for it. The control count says in how many pairings with the empty strains this scFv gave a signal. A sequence measured in both rounds can read differently, since the two assays cover different ranges. The parent sequence was in this pool as ten entries: three were never detected, three once, and four in most replicates, with averages from 2.2 nM to 240 nM.

Variant IVSGLMLWGMHVKNSIA / EAVTRLN / QQYDRLPLF gave 410 nM (1 of 6 replicates; controls 0 of 18). Variant TISQMSTLFSQSINNVA / ETSTRLN / QQYDRLPLS gave 8.4 nM (6 of 6 replicates; controls 0 of 18). Variant KVSEFMRGMMRQKDSIA / DNETRQS / QQYDRLPLS gave 36 nM (5 of 6 replicates; controls 0 of 18). With KARQSNLYESRNQNSVA / SASQRLD / QQYHRLPLS the result was 2.5 nM (6 of 6 replicates; controls 0 of 18). Variant MISQVMGLNNSYKSSVA / QAEERNQ / QQYDHLPLS showed 290 nM (5 of 6 replicates; controls 0 of 18). For KISMMSSIESIMHNSVA / QTSNREN / QQYDRLPLS, the assay gave 4.0 nM (6 of 6 replicates; controls 0 of 18).

Variant KLSMSVMMESRNKNSVA / SANTREE / QQYHRLPLS showed 1.2 nM (6 of 6 replicates; controls 0 of 18). Variant AISMHAFYGYRDENGIA / GADVRAK / QQYYRLPLT showed 3.9 nM (6 of 6 replicates; controls 0 of 18). With TIGGTLMYGYRNRSNVA / EVSERLN / QQYDRLPLV the result was 59 nM (6 of 6 replicates; controls 2 of 18). Variant KIGATLNQLMHKKNNVA / DLVEREN / QQYFRLPLS showed no signal (0 of 6 replicates; controls 0 of 18). Variant HLQEQSFVGQKDKWSVA / ETECKYN / QQYAQLPLM gave 32 nM (5 of 6 replicates; controls 0 of 18). For KSSWGVDDESRNDNSVA / KASTRCS / QQYHRLPLS, the assay gave 2.0 nM (6 of 6 replicates; controls 1 of 18).

For VLGGQWGLGTTQNSSIA / NVSETML / QQYWRLPLM, the assay gave 36 nM (4 of 6 replicates; controls 0 of 18). Variant QMKMSLLQGILIKDSIA / SSDLREM / QQYEHLPLI showed 310 nM (2 of 6 replicates; controls 0 of 18). Variant KIGGVTNGISRNKQSVA / EQSTRED / QQYNRLPLS showed 11 nM (6 of 6 replicates; controls 0 of 18). Variant KLLQSVNYGSRAVNSVA / QMETRED / QQYHRLPLS showed 29 nM (6 of 6 replicates; controls 2 of 18). For QIDHPELSFQQNQYSIA / NASASLD / QQYAQLPLM, the assay gave 23 nM (6 of 6 replicates; controls 2 of 18). With HINDMLLGQEKIAHSIA / NTGVTSR / QQYQRLPLI the result was 5.5 nM (6 of 6 replicates; controls 3 of 18).

With KLSMSHGYESRMKNSVA / HASQREE / QQYHRLPLS the result was 1.7 nM (6 of 6 replicates; controls 3 of 18). With HVSSMDMHDGGIKHSVA / DMKITER / QQYMRLPLS the result was 10 nM (6 of 6 replicates; controls 0 of 18). Variant KLSTGTYGLTGHTSNVA / HDEMRWE / QQYHKLPLI gave 110 nM (6 of 6 replicates; controls 2 of 18). Variant IVSQLMLWGYHAKNSIA / EAELRLN / QQYDRLPLF showed 230 nM (1 of 6 replicates; controls 0 of 18). With NFSMELEDMGVKTKSIA / ENQLTEY / QQYARLPLM the result was 30 nM (6 of 6 replicates; controls 0 of 18). With KIGLTLNTLLHQKNNVA / DLVTREN / QQYFRLPLS the result was 1.8 nM (3 of 6 replicates; controls 0 of 18).

For QLELVQSGDTISENSVA / HAEVSGR / QQYSQLPLI, the assay gave no signal (0 of 6 replicates; controls 0 of 18). With KIEQSMLYEDRNKNSVA / NASQRES / QAYHRLPLS the result was 4.4 nM (6 of 6 replicates; controls 1 of 18). Variant NMHNMCYQYENYGNSIA / HANMREN / QQYSRLPFT gave 4.4 nM (6 of 6 replicates; controls 0 of 18). With FFGYDIFQENMKAKSIA / EANMRVE / QQYAILPLT the result was 21 nM (6 of 6 replicates; controls 0 of 18). Variant QIYQAMHTLSQVKNNVA / DVNERGQ / QQYFRLPLS showed 3.4 nM (6 of 6 replicates; controls 1 of 18). Variant QLSVFELQGMSWMQSIA / QASHRTE / QQFSRLPLV showed 3.7 nM (6 of 6 replicates; controls 0 of 18).

For MVTQMAMSGMTNKRSVA / NAETREY / QQYHRLPLI, the assay gave 5.0 nM (6 of 6 replicates; controls 0 of 18). Variant NISESMYFQSVNKNNIA / EMSTRER / QHYHRLPLS gave 2.0 nM (6 of 6 replicates; controls 0 of 18). Variant KLSQSMPYEQRNKNSVA / NASQRES / QCYHRLPLS gave 3.1 nM (6 of 6 replicates; controls 0 of 18). With MISQVMNTLTRHGNNVA / DLEEREE / QQYFRLPLS the result was 24 nM (3 of 6 replicates; controls 0 of 18). Variant TIQQMMSLFSQTINNVA / EVSLREK / QQYDRLPLA gave 29 nM (6 of 6 replicates; controls 0 of 18). Variant KVGQMTAIESRNLNSVA / QMDTRES / QQYDRLPLS gave 12 nM (6 of 6 replicates; controls 1 of 18).

With KIGQTLNQLMHQKNNVA / DLVMREK / QQYTRLPLS the result was 3.1 nM (6 of 6 replicates; controls 0 of 18). Variant MISQLYNFGTFAINSVA / QASTRME / QQYHRLPLM showed 8.9 nM (5 of 6 replicates; controls 0 of 18). Variant NITQIFDNMGDQRANVA / NGETLFH / QQYARLPLL gave 3.1 nM (6 of 6 replicates; controls 0 of 18). Variant HISMMVGTKGCNKNSVA / NAETRED / QQYHRLPLS gave 930 pM (6 of 6 replicates; controls 0 of 18). Variant KARQSQLYESRNQNSVA / NASQRLE / QQYHRLPLS showed 1.3 nM (6 of 6 replicates; controls 0 of 18). For KLPHLSFVHDREKNNVA / DLNVKCS / QQYDRLPLA, the assay gave 59 nM (6 of 6 replicates; controls 1 of 18).

With MMGMTVTNQSNEITNVA / DMNERFA / QQYFQLPLS the result was 1.7 nM (6 of 6 replicates; controls 2 of 18). For HMSAITLGGMRARNSVA / QMTTREN / QQYDRLPLS, the assay gave 3.5 nM (6 of 6 replicates; controls 1 of 18). For MISQLMNMGQFAINSVA / QASLRCN / QQYFRLPLE, the assay gave 35 nM (5 of 6 replicates; controls 1 of 18). With KLWLAMDMFQGEANAVA / DQQLTRE / QQYARLPLS the result was 41 nM (1 of 6 replicates; controls 0 of 18). Variant TISQMTSLFSQTINNVA / EVSTREQ / QQYDRLPLM gave 6.5 nM (6 of 6 replicates; controls 2 of 18).

The opening 6 entries, copied out:

For IVSGLMLWGMHVKNSIA / EAVTRLN / QQYDRLPLF, the assay gave 410 nM (1 of 6 replicates; controls 0 of 18).
For TISQMSTLFSQSINNVA / ETSTRLN / QQYDRLPLS, the assay gave 8.4 nM (6 of 6 replicates; controls 0 of 18).
For KVSEFMRGMMRQKDSIA / DNETRQS / QQYDRLPLS, the assay gave 36 nM (5 of 6 replicates; controls 0 of 18).
For KARQSNLYESRNQNSVA / SASQRLD / QQYHRLPLS, the assay gave 2.5 nM (6 of 6 replicates; controls 0 of 18).
For MISQVMGLNNSYKSSVA / QAEERNQ / QQYDHLPLS, the assay gave 290 nM (5 of 6 replicates; controls 0 of 18).
For KISMMSSIESIMHNSVA / QTSNREN / QQYDRLPLS, the assay gave 4.0 nM (6 of 6 replicates; controls 0 of 18).